Legend:
Recombinant human DDR1 = Recombinant human DDR1 (Homo sapiens, UniProt Q08345); assay: LanthaScreen Eu Kinase Binding Assay, DDR1; conditions: recombinant human DDR1 (2.5 nM; aa440-876, GST tag), Kinase Tracer 178 5 nM, time-resolved fluorescence, at least two independent replicates
Recombinant human DDR2 = Recombinant human DDR2 (Homo sapiens, UniProt Q16832); assay: LanthaScreen Eu Kinase Binding Assay, DDR2; conditions: recombinant human DDR2 (1.75 nM; aa427-855, GST tag), Kinase Tracer 178 10 nM, time-resolved fluorescence, at least two independent replicates

The chains behind the UniProt entries cited, without tags or fusion partners. Residues count along the entry.
UniProt Q08345, 440-876 isoform 2 limits assumed: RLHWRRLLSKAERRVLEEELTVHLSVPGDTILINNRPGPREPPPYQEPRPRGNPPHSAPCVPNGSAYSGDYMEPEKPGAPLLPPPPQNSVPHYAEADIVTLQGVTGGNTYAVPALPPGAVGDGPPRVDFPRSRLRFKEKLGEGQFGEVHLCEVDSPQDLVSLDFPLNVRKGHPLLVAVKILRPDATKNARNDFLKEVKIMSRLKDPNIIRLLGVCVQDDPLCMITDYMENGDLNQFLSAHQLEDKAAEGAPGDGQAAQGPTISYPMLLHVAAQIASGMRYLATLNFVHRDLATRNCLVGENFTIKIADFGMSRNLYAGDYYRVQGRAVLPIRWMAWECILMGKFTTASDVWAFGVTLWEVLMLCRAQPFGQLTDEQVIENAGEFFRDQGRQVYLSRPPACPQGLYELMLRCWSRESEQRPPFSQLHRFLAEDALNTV
UniProt Q16832, 427-855 limits assumed: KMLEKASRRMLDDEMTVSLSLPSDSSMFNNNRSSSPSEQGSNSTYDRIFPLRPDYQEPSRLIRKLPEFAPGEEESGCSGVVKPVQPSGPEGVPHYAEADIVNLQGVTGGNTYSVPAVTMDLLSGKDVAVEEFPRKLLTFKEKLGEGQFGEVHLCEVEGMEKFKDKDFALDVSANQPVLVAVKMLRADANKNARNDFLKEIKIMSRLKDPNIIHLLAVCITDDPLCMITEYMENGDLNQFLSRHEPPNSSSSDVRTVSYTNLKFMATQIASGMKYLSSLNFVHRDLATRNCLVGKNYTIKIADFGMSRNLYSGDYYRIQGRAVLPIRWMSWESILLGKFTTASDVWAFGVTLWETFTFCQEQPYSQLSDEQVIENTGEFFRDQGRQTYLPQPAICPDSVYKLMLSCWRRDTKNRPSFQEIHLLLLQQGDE

Row | SMILES | DDR1 pIC50 (Recombinant human DDR1) | DDR2 pIC50 (Recombinant human DDR2)
1 | O=C(Cn1ccc2cccc(Nc3ccc4[nH]nc(C(F)(F)F)c4c3)c2c1=O)NCC(F)(F)F | D (pIC50≤6) | D (pIC50≤6)
2 | Cn1ncc2ccc(Nc3cccc4ccn(CC(=O)NCC(F)(F)F)c(=O)c34)cc21 | D (pIC50≤6) | D (pIC50≤6)
3 | NC(=O)c1cc(Nc2cccc3ccn(CC(=O)NCC(F)(F)F)c(=O)c23)cc2cn[nH]c12 | B (8≥pIC50>7) | C (7≥pIC50>6)
4 | CN(C)c1cc(Nc2cccc3ccn(CC(=O)NCC(F)(F)F)c(=O)c23)cc2cnn(C)c12 |  | D (pIC50≤6)
5 | C[C@H](NC(=O)Cn1ccc2ccc(F)c(Nc3ccc4c(cnn4C)c3)c2c1=O)C(F)(F)F | A (pIC50>8) | B (8≥pIC50>7)
6 | Cn1ncc2cc(Nc3cccc4ccn(CC(=O)Nc5ccc(C(C)(C)O)cc5)c(=O)c34)ccc21 | B (8≥pIC50>7) | B (8≥pIC50>7)
7 | Cn1ncc2cc(Nc3c(F)ccc4ccn(CC(=O)NCC(F)(F)F)c(=O)c34)ccc21 | B (8≥pIC50>7) | B (8≥pIC50>7)
8 | Cc1n[nH]c2cc(Nc3cccc4ccn(CC(=O)NCC(F)(F)F)c(=O)c34)cnc12 | C (7≥pIC50>6) | D (pIC50≤6)
9 | O=C(Cn1ccc2cccc(Nc3cnc4[nH]ncc4c3)c2c1=O)Nc1cncc(C(F)(F)F)c1 | A (pIC50>8) | B (8≥pIC50>7)
10 | Cn1ncc2cc(Nc3cccc4ccn(CC(=O)NCC(F)(F)F)c(=O)c34)cc(Cl)c21 | A (pIC50>8) | C (7≥pIC50>6)
11 | Cc1n[nH]c2cc(Nc3c(F)ccc4ccn(CC(=O)NCC(F)(F)F)c(=O)c34)ccc12 | A (pIC50>8) | B (8≥pIC50>7)
12 | Cc1n[nH]c2cc(Nc3cccc4ccn(CC(=O)Nc5cccc(C(C)(C)O)c5)c(=O)c34)ccc12 | A (pIC50>8) | B (8≥pIC50>7)
13 | COC(=O)c1cc(Nc2cccc3ccn(CC(=O)NCC(F)(F)F)c(=O)c23)cc2cn[nH]c12 | A (pIC50>8) | B (8≥pIC50>7)
14 | Cc1cc(Nc2cccc3ccn(CC(=O)N4CCC[C@H]4C(F)(F)F)c(=O)c23)cc2cn[nH]c12 | A (pIC50>8) | B (8≥pIC50>7)
15 | O=C(Cn1ccc2cccc(Nc3cnc4[nH]ncc4c3)c2c1=O)Nc1cccc(C(F)(F)F)c1 | B (8≥pIC50>7) | D (pIC50≤6)
16 | Cn1ncc2cc(Nc3cccc4ccn(CC(=O)N5CCC(C(C)(C)O)CC5)c(=O)c34)ccc21 | C (7≥pIC50>6) | D (pIC50≤6)
17 | CCc1cc(Nc2cccc3ccn(CC(=O)NCC(F)(F)F)c(=O)c23)cc2cn[nH]c12 | A (pIC50>8) | C (7≥pIC50>6)
18 | N#Cc1cc(Nc2cccc3ccn(CC(=O)NCC(F)(F)F)c(=O)c23)cc2[nH]ncc12 | B (8≥pIC50>7) | D (pIC50≤6)
19 | Cn1ncc2c(C#N)cc(Nc3cccc4ccn(CC(=O)NCC(F)(F)F)c(=O)c34)cc21 | D (pIC50≤6) | D (pIC50≤6)
20 | Cc1nc2[nH]ncc2cc1Nc1cccc2ccn(CC(=O)NCC(F)(F)F)c(=O)c12 | D (pIC50≤6) | D (pIC50≤6)
21 | O=C(Cn1ccc2cccc(Nc3cc(C(F)(F)F)c4[nH]ncc4c3)c2c1=O)NCC(F)(F)F | A (pIC50>8) | B (8≥pIC50>7)
22 | O=C(Cn1ccc2cccc(Nc3cnc4[nH]ncc4c3)c2c1=O)N1CCC[C@H]1C(F)(F)F | B (8≥pIC50>7) | C (7≥pIC50>6)
23 | Cn1ncc2cc(Nc3cccc4ccn(CC(=O)N5CCC(C(C)(C)O)C5)c(=O)c34)ccc21 (stereo not shown) | C (7≥pIC50>6) | C (7≥pIC50>6)
24 | Cc1n[nH]c2cc(N(C)c3cccc4ccn(CC(=O)NCC(F)(F)F)c(=O)c34)ccc12 | B (8≥pIC50>7) | C (7≥pIC50>6)
25 | O=C(Cn1ccc2cccc(Nc3cc(F)c4[nH]ncc4c3)c2c1=O)NCC(F)(F)F | A (pIC50>8) | B (8≥pIC50>7)
26 | CN(c1ccc2c(cnn2C)c1)c1cccc2ccn(CC(=O)Nc3cccc(C(C)(C)O)c3)c(=O)c12 | B (8≥pIC50>7) | C (7≥pIC50>6)
27 | Cn1ncc2cc(Nc3ccc(F)c4ccn(CC(=O)NCC(F)(F)F)c(=O)c34)ccc21 | B (8≥pIC50>7) | C (7≥pIC50>6)

Row | SMILES | DDR1 pIC50 (Recombinant human DDR1) | DDR2 pIC50 (Recombinant human DDR2)
28 | N#Cc1cc(Nc2cccc3ccn(CC(=O)NCC(F)(F)F)c(=O)c23)cc2cn[nH]c12 | A (pIC50>8) | B (8≥pIC50>7)
29 | O=C(Cn1ccc2cccc(Nc3cc([N+](=O)[O-])c4[nH]ncc4c3)c2c1=O)NCC(F)(F)F | A (pIC50>8) | 
30 | CC(C)(O)c1cccc(NC(=O)Cn2ccc3cccc(Nc4cnc5[nH]ncc5c4)c3c2=O)c1 | A (pIC50>8) | C (7≥pIC50>6)
31 | Cn1ncc2cc(Nc3cccc4ccn(CC(=O)Nc5cccc(C(F)(F)F)c5)c(=O)c34)ccc21 | B (8≥pIC50>7) | B (8≥pIC50>7)
32 | COc1cc(Nc2cccc3ccn(CC(=O)NCC(F)(F)F)c(=O)c23)cc2cn[nH]c12 | B (8≥pIC50>7) | D (pIC50≤6)
33 | Cn1ncc2cc(Nc3cccc4ccn(CC(=O)Nc5cncc(C(C)(C)O)c5)c(=O)c34)ccc21 | B (8≥pIC50>7) | B (8≥pIC50>7)
34 | Cn1ncc2cc(Nc3c(F)ccc4ccn(CC(=O)NCC(F)(F)F)c(=O)c34)cc(Cl)c21 | A (pIC50>8) | B (8≥pIC50>7)
35 | Cn1ncc2cc(Nc3cccc4ccn(CC(=O)Nc5cccc(C(C)(C)O)c5)c(=O)c34)cnc21 | B (8≥pIC50>7) | C (7≥pIC50>6)
36 | CC(C)(O)c1cc(Nc2cccc3ccn(CC(=O)NCC(F)(F)F)c(=O)c23)cc2cn[nH]c12 | C (7≥pIC50>6) | D (pIC50≤6)
37 | Cn1ncc2cc(Nc3c(F)ccc4ccn(CC(=O)Nc5cccc(C(F)(F)F)c5)c(=O)c34)ccc21 | B (8≥pIC50>7) | 
38 | O=C(Cn1ccc2cccc(Nc3cnc4[nH]ncc4c3)c2c1=O)NCC(F)(F)F | C (7≥pIC50>6) | D (pIC50≤6)
39 | Cn1ncc2cc(Nc3cccc4ccn(CC(=O)N5CCC(C)(O)CC5)c(=O)c34)ccc21 | C (7≥pIC50>6) | D (pIC50≤6)
40 | Cn1ncc2cc(Nc3c(F)ccc4ccn(CC(=O)N5CCC[C@H]5C(F)(F)F)c(=O)c34)ccc21 | A (pIC50>8) | B (8≥pIC50>7)
41 | O=C(Cn1ccc2cccc(Nc3ccc4[nH]ncc4c3)c2c1=O)Nc1cccc(C(F)(F)F)c1 | B (8≥pIC50>7) | B (8≥pIC50>7)
42 | COc1cccc(NC(=O)Cn2ccc3cccc(Nc4ccc5c(cnn5C)c4)c3c2=O)c1 | A (pIC50>8) | B (8≥pIC50>7)
43 | O=C(Cn1ccc2cccc(Nc3cnc4cn[nH]c4c3)c2c1=O)NCC(F)(F)F | C (7≥pIC50>6) | D (pIC50≤6)
44 | O=C(Cn1ccc2cccc(Nc3cc(Cl)c4[nH]ncc4c3)c2c1=O)N1CCC[C@H]1C(F)(F)F | A (pIC50>8) | B (8≥pIC50>7)
45 | O=C(Cn1ccc2cccc(Nc3cc(C4CC4)c4[nH]ncc4c3)c2c1=O)NCC(F)(F)F | A (pIC50>8) | B (8≥pIC50>7)
46 | Cc1cc(Nc2cccc3ccn(CC(=O)NCC(F)(F)F)c(=O)c23)cc2cn[nH]c12 | A (pIC50>8) | C (7≥pIC50>6)
47 | Cn1ncc2cc(Nc3cccc4ccn(CC(=O)N5CCCCC5C(C)(C)O)c(=O)c34)ccc21 (stereo not shown) | D (pIC50≤6) | D (pIC50≤6)
48 | CC(C)c1cc(Nc2cccc3ccn(CC(=O)NCC(F)(F)F)c(=O)c23)cc2cn[nH]c12 | B (8≥pIC50>7) | C (7≥pIC50>6)
49 | Cn1ncc2cc(Nc3cccc4ccn(CC(=O)N5CCCC5CC(C)(C)O)c(=O)c34)ccc21 (stereo not shown) | C (7≥pIC50>6) | D (pIC50≤6)
50 | Cc1n[nH]c2cc(Nc3cccc4ccn(CC(=O)NCC(F)(F)F)c(=O)c34)ccc12 | B (8≥pIC50>7) | C (7≥pIC50>6)
51 | Cc1n[nH]c2ccc(Nc3cccc4ccn(CC(=O)NCC(F)(F)F)c(=O)c34)cc12 | D (pIC50≤6) | D (pIC50≤6)
52 | CN(c1cc(F)c2[nH]ncc2c1)c1cccc2ccn(CC(=O)N3CCC[C@H]3C(F)(F)F)c(=O)c12 | B (8≥pIC50>7) | B (8≥pIC50>7)
53 | Cn1ncc2cc(Nc3cccc4ccn(CC(=O)N5CCC[C@H]5C(F)(F)F)c(=O)c34)cc(F)c21 | A (pIC50>8) | B (8≥pIC50>7)
